The text below walks through data of PubChem BioAssay AID1434 (Sanford-Burnham Center for Chemical Genomics, 2008).

Protein sequences, listed by entry. Tags and fused reporters are not part of them.
UniProt Q01196, whole entry, looked up: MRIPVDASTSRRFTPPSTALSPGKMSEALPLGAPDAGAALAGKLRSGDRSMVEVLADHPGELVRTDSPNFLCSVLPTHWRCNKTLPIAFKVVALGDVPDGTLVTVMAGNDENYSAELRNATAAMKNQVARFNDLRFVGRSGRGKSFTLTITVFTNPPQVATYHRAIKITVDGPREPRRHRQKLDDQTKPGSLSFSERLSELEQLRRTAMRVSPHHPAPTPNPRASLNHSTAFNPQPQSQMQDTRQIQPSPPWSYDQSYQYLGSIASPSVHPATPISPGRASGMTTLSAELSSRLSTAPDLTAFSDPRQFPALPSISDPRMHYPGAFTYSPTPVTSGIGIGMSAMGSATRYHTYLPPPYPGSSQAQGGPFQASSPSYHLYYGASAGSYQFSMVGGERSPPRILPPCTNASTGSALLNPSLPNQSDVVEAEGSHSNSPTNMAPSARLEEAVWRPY
UniProt Q13951, whole entry, looked up: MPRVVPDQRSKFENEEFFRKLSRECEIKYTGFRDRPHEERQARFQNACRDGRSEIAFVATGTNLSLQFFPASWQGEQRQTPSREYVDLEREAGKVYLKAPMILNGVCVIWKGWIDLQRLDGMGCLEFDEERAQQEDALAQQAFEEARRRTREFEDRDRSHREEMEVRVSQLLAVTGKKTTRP

This is a selection; strong and weak results do not stand in their true shares. Activity calls are given as the source filed them.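 Rule for the calls: active = mean inhibition across duplicate retests at 20 µM reaching about 50% (limit read from the data); inactive = the rest, inconclusive results apart.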

One may read the inhibition as the change of the read-out against control, counted positive when it falls.

The experiment concerns the target Runt-related transcription factor 1 (Homo sapiens) + Core-binding factor subunit beta (Homo sapiens) (UniProt Q01196+Q13951). The experiment is described as follows: inhibitors of RUNX1 Runt–CBFb-SMMHC binding, primary screen, biochemical, FRET, Cerulean-Runt, Venus-CBFb-SMMHC, uHTS (AID 1434).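 Note: 0% = DMSO wells and 100% = wells with excess untagged CBFb-SMMHC; inhibitors lower the FRET ratio by blocking Runt binding to CBFb-SMMHC.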 The conditions noted are these: Cerulean-Runt/Venus-CBFb-SMMHC FRET ratio 530/480, 1 h; at 20 µM; hits give high values.
`COc1ccc(OP(C)(=O)Nc2ccc(Br)cc2)cc1` (stereo not drawn): the inhibition was inactive: 3%.

Consider `CCN(CC)CC(O)COC(=O)C(O)(c1ccccc1)C1CCCCC1` (stereo not drawn), for which the inhibition is inactive: 0.7%.

Turning to `O=C(OCCCN1CCCC1)C(O)(c1ccccc1)C1CCCCC1` (stereo not drawn), the inhibition is inactive: -5.6%.

Turning to `COc1ccccc1OP(C)(=O)Nc1c(C)n(C)n(-c2ccccc2)c1=O` (stereo not drawn), the inhibition is inactive: 1%.

As to `CCc1ccc(OP(C)(=O)Nc2cccnc2)cc1` (stereo not drawn), the inhibition is inactive: -2.5%.

As for `CP(=O)(Oc1ccccc1)N1CCOC1=O` (stereo not drawn), the inhibition is inactive: 2.6%.

Take `COc1ccccc1OP(C)(=O)Nc1ccccc1Br` (stereo not drawn): the inhibition is inactive: -1.8%.

Regarding `CC(C)(C)c1ccc(OP(C)(=O)O)cc1`, the inhibition was inactive: -3.7%.

Turning to `CP(=O)(Nc1ccc(Cl)cc1)Oc1ccc(F)cc1` (stereo not drawn), the inhibition is inactive: 0.4%.

As to `CN(C)C(=O)c1c([N+](=O)[O-])cc([N+](=O)[O-])cc1[N+](=O)[O-]`, the inhibition is inactive: -3.3%.

Consider `CCOC(=O)c1ccc(NP(C)(=O)Oc2ccc(Cl)cc2)cc1` (stereo not drawn), for which the inhibition was inactive: -0.5%.

Consider `CP(=O)(OC12CC3CC(CC(C3)C1)C2)OC12CC3CC(CC(C3)C1)C2`, for which the inhibition is inactive: 1.3%.

For `Cc1cc(C)cc(OP(C)(=O)Nc2cccc(C(F)(F)F)c2)c1` (stereo not drawn), the inhibition was inactive: -4.9%.

As to `COc1ccccc1OP(C)(=O)Nc1ccc(C)c(C)c1` (stereo not drawn), the inhibition was inactive: -1%.

Consider `COc1ccc(OP(C)(=O)Nc2ccccc2Br)cc1` (stereo not drawn), for which the inhibition was inactive: 1.1%.

For the compound `Cc1nc2ccc3ccccc3c2o1.O=[N+]([O-])c1cc([N+](=O)[O-])c(O)c([N+](=O)[O-])c1`, the inhibition is inactive: -4.6%.

Turning to `CP(=O)(Nc1ccc(Cl)cc1Cl)Oc1ccccc1` (stereo not drawn), the inhibition was inactive: -1.1%.

`CP(=O)(OCCOc1ccccc1)OCCOc1ccccc1`: the inhibition is inactive: 3.4%.

`COc1ccccc1OP(C)(=O)Nc1ccc(Br)cc1` (stereo not drawn): the inhibition is inactive: -0.3%.

Take `COc1ccc(OP(C)(=O)Nc2ccccn2)cc1` (stereo not drawn): the inhibition is inactive: 3.2%.

In the case of `CN(C)CCOC(=O)C(O)(c1ccccc1)C1CCCC1` (stereo not drawn), the inhibition is inactive: -3.9%.

In the case of `Cc1c(NP(C)(=O)Oc2ccc(C(C)C)cc2)c(=O)n(-c2ccccc2)n1C` (stereo not drawn), the inhibition is inactive: -9.2%.

For `O=[N+]([O-])c1cc([N+](=O)[O-])c(Nc2ccccn2)c([N+](=O)[O-])c1`, the inhibition is inactive: -0.1%.

On to `COc1ccccc1OP(C)(=O)Nc1ccc(C)cc1C` (stereo not drawn), for which the inhibition is inactive: -1.9%.

On to `CP(=O)(Nc1ccccn1)Oc1ccccc1` (stereo not drawn), for which the inhibition was inactive: 0.9%.

Regarding `CP(=O)(Nc1ccccc1F)Oc1ccccc1` (stereo not drawn), the inhibition was inactive: 7.1%.

Turning to `CC(C)c1ccc(OP(C)(=O)Nc2ccc(SC(F)(F)F)cc2)cc1` (stereo not drawn), the inhibition is inactive: -2.7%.

As for `O=C(OC1CN2CCC1CC2)c1ccc([N+](=O)[O-])cc1` (stereo not drawn), the inhibition is inactive: 0.4%.
